One may read the IC50 as the concentration at which inhibition is half-maximal.

Chains of the proteins cited; added tags and fusions are not shown.
UniProt P28482, whole entry: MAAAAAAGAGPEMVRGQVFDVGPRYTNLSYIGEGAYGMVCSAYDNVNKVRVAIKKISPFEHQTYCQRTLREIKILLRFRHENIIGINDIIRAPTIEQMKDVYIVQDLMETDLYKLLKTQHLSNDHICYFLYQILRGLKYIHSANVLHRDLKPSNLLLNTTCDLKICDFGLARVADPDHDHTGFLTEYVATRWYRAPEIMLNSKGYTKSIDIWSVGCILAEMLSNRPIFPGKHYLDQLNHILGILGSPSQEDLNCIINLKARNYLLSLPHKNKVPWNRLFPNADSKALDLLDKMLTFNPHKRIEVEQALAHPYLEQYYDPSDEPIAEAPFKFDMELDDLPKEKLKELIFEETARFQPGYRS

Structures are written as SMILES.

The target of the first experiment is Active Human ERK2 (hERK2) (Homo sapiens (Human), UniProt P28482). Put plainly: Active Human ERK2 (hERK2) Activity Assay (IMAP-FP). It is filed as biochemical. To be noted: read-out: ERK 2 Human average IC50.
Regarding `Cc1cc(-c2n[nH]c3cc(NC(=O)NC4CCOc5c(F)cc(F)cc54)ncc23)ccn1` (stereo not drawn), the 50% inhibitory concentration (IC50) is 8.36 nM. Regarding `Cc1cc(-c2n[nH]c3cc(NC(=O)N[C@@H]4CCOc5cc(Cl)ccc54)ncc23)ccn1`, the half-inhibitory concentration (IC50) is 6.33 nM.

The same experiment, now with this note: read-out: ERK 2 Human average IC50; phosphorylated active hERK2, 30 μM ATP; average.
On to `COCCNC(=O)Nc1cc2[nH]nc(-c3ccc(C(C)(C)C#N)cc3)c2cn1`, for which the half-inhibitory concentration (IC50) turned out to be 36.4 nM. Still for that read-out and setting: for `Cc1cc(-c2n[nH]c3cc(NC(=O)NCc4ccc(F)cc4Cl)ncc23)ccn1` the value was 1.2 nM. On the same count and under the same terms, for `CN(C)CC(NC(=O)Nc1cc2[nH]nc(-c3ccc(F)cc3)c2cn1)c1ccccc1` (stereo not drawn) the value was 0.886 nM; for `C[C@@H](NC(=O)Nc1cc2[nH]nc(-c3cc(CO)on3)c2cn1)c1ccccc1`, 19.7 nM. Still for that read-out and setting: for `Cc1cc(-c2n[nH]c3cc(NC(=O)NC(CN(C)C)c4ccccc4)ncc23)ccn1` (stereo not drawn) the value was 0.739 nM; for `Cc1cc(-c2n[nH]c3c(F)c(NC(=O)N[C@H](C)c4ccc(F)cc4)ncc23)ccn1`, 0.304 nM. For `Cc1cc(-c2n[nH]c3cc(NC(=O)N[C@H]4CN(C)C5(COC5)[C@@H]4c4ccccc4)ncc23)ccn1`, the IC50 came out at 0.516 nM. In the case of `Cc1cc(-c2n[nH]c3cc(NC(=O)NC(CC(C)(C)C)c4ccc(Cl)cc4)ncc23)ccn1` (stereo not drawn), the half-inhibitory concentration (IC50) was determined as 53.5 nM. As for `Cc1cc(-c2n[nH]c3cc(NC(=O)NC(CC(C)C)c4ccc(Cl)cc4)ncc23)ccn1` (stereo not drawn), the IC50 was 12.8 nM. As to `COC[C@@H](C)NC(=O)Nc1cc2[nH]nc(-c3ccc(F)cc3)c2cn1`, the IC50 is 2.19 nM.

For `Cc1cc(-c2n[nH]c3cc(NC(=O)NC4CNCc5ccccc54)ncc23)ccn1` (stereo not drawn), the concentration for half-maximal inhibition (IC50) was 1.2 nM. Consider `COC[C@H](C)NC(=O)Nc1cc2[nH]nc(-c3ccc(F)cc3)c2cn1`, for which the IC50 is 6.21 nM.

`C[C@@H](NC(=O)Nc1cc2[nH]nc(-c3cncc(C(F)(F)F)c3)c2cn1)c1ccc(F)cc1`: the 50% inhibitory concentration (IC50) came out at 32.5 nM.

(Values after patent publication US9023865B2, “Compounds that are ERK inhibitors” (Merck Sharp & Dohme Corp., priority 2011, dated 2015).)
